Results: EP0116431B1, “Aromatase inhibiting pyrimidine derivatives” (ELI LILLY AND COMPANY, priority 1983, dated 1984)
Where two headings read alike, the source gives them in different places.

Test system: synthesis of estrogens
Conditions: ovaries, seven days
[1] = 30 ppm in feed (approximately 3 mg/kg/day)
[2] = 300 ppm in feed (approximately 30 mg/kg/day)

Row | SMILES | Mean Steroid Concentration estradiol [1] | Mean Steroid Concentration estriol [1] | Mean Steroid Concentration estrone [1] | Mean Steroid Concentration estradiol [2] | Mean Steroid Concentration estriol [2] | Mean Steroid Concentration estrone [2]
1 | Clc1ccc(C(c2ccc(Cl)cc2)c2cncnc2)cc1 [compound 27, 5-bis(4-chlorophenyl)methylpyrimidine] | 0.14^+ femtomoles per milligram of protein | 0.59 femtomoles per milligram of protein | 0.14 femtomoles per milligram of protein | 0.15^+ femtomoles per milligram of protein | 0.29 femtomoles per milligram of protein | 0.12 femtomoles per milligram of protein
2 | OC(c1ccc(Cl)cc1)(c1ccc(Cl)cc1)c1cncnc1 [compound 29, α,α-bis(4-chlorophenyl)-5-pyrimidinemethanol] | 0.31^+ femtomoles per milligram of protein | 1.24 femtomoles per milligram of protein | 0.34 femtomoles per milligram of protein | 0.14^+ femtomoles per milligram of protein | 2.74 femtomoles per milligram of protein | 0.70 femtomoles per milligram of protein
